Source: patent US9636336B2, “Aminoester derivatives” (CHIESI FARMACEUTICI S.p.A., priority 2015, dated 2017)
Like-named read-outs stand apart in the source and are kept apart here.

Amino acid sequences for entries named in this document (tags omitted). Chains listed by the source or under a name are the forms on record and can include a tag or linker. Residues count along the entry.
UniProt P20309, whole entry: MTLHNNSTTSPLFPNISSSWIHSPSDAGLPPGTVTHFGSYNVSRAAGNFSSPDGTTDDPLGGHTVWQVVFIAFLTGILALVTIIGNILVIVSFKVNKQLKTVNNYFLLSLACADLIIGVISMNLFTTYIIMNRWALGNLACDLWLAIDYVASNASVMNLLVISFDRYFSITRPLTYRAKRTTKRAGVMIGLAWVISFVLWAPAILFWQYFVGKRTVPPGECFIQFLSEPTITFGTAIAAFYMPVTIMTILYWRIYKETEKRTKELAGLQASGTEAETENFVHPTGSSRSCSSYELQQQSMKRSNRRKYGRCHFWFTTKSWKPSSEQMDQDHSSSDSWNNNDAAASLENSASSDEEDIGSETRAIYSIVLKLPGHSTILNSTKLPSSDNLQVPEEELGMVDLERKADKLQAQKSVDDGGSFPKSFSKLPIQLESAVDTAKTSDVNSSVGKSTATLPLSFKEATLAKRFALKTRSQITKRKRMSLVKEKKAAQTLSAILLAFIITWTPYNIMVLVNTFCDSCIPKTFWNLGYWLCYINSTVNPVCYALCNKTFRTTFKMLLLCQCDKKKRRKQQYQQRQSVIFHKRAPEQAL
UniProt Q07343, 212-736 with tags or gaps limits assumed: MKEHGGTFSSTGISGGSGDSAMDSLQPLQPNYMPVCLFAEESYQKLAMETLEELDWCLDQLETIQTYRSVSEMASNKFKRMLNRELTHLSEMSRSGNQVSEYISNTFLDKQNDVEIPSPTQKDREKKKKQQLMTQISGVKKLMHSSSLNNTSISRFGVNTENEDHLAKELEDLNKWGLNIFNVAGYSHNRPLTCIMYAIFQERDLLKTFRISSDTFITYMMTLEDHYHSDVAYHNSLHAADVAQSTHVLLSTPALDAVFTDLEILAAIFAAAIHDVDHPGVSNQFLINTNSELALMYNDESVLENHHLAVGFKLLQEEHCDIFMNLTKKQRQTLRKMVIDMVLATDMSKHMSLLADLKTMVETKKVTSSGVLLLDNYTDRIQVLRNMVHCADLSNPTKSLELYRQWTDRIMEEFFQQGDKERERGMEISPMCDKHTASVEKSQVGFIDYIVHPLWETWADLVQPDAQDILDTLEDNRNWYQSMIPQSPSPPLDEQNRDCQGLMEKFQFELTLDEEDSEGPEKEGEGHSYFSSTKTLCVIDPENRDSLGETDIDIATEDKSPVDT

Legend:
[1] = target: Human M3 receptor membranes (Homo sapiens (Human), UniProt P20309); assay: M3 Receptor radioligand binding assay
Human recombinant PDE4B2 = Human recombinant PDE4B2 (Homo sapiens (Human), UniProt Q07343); assay: PDE4B2 HTRF assay; format: biochemical; conditions: read-out: PDE4B2 IC50 activity

Row | Structure (SMILES) | IC50 ([1]; read-out: M3 IC50 activity) [nM] | IC50 (Human recombinant PDE4B2) [nM] | IC50 ([1]; read-out: M3 IC50 activity, tested form: formate) [nM]
1 | COCCN1CCC(COC(=O)C(NCc2ccc(C(=O)O[C@@H](Cc3c(Cl)c[n+]([O-])cc3Cl)c3ccc(OC)c(OC)c3)s2)c2ccccc2)CC1 (single isomer, unassigned) | 10 to 100 | 1 to 10 | –
2 | COc1ccc([C@H](Cc2c(Cl)c[n+]([O-])cc2Cl)OC(=O)c2ccc(CNC(C(=O)OCC3(C)CCN(C)CC3)c3ccccc3)s2)cc1OC (single isomer, unassigned) | 10 to 100 | 1 to 10 | –
3 | COc1ccc([C@H](Cc2c(Cl)c[n+]([O-])cc2Cl)OC(=O)c2ccc(CNC(C(=O)OCC3CCN(C)CC3)C3CCCCC3)s2)cc1OC (single isomer, unassigned) | 10 to 100 | – | –
4 | COc1ccc([C@H](Cc2c(Cl)c[n+]([O-])cc2Cl)OC(=O)c2ccc(CNC(C(=O)OC[C@@H]3CCCCN3C)c3ccccc3)s2)cc1OC (single isomer, unassigned) | 1 to 10 | – | –
5 | COc1ccc([C@H](Cc2c(Cl)c[n+]([O-])cc2Cl)OC(=O)c2ccc(CNC(C(=O)OC[C@H]3CCCCN3C)c3ccccc3)s2)cc1OC (single isomer, unassigned) | 1 to 10 | – | –
6 | COc1ccc([C@H](Cc2c(Cl)c[n+]([O-])cc2Cl)OC(=O)c2ccc(CNC(C(=O)OC[C@H]3CCN(C)C3)c3ccccc3)s2)cc1OC (single isomer, unassigned) | 10 to 100 | 1 to 10 | –
7 | COc1ccc([C@H](Cc2c(Cl)c[n+]([O-])cc2Cl)OC(=O)c2ccc(CNC(CO)(C(=O)OCC3CCN(C)CC3)c3cccs3)s2)cc1OC (single isomer, unassigned) | – | – | 1 to 10
8 | COc1ccc([C@H](Cc2c(Cl)c[n+]([O-])cc2Cl)OC(=O)c2ccc(CNC(C(=O)OCC3(F)CCN(C)CC3)c3ccccc3)s2)cc1OC (single isomer, unassigned) [Example 53] | – | 1 to 10 | –
9 | COc1ccc([C@H](Cc2c(Cl)c[n+]([O-])cc2Cl)OC(=O)c2ccc(CNC(C(=O)OCC3(F)CCN(C)CC3)c3ccccc3)s2)cc1OC (single isomer, unassigned) [Example 54] | – | 1 to 10 | –
10 | COc1ccc(C(Cc2c(Cl)c[n+]([O-])cc2Cl)OC(=O)c2ccc(CNC(C(=O)OCC3CCN(C)CC3)c3ccccc3)s2)cc1OC1CCCC1 (single isomer, unassigned) [Example 57] | 10 to 100 | 1 to 10 | –
11 | COc1ccc(C(Cc2c(Cl)c[n+]([O-])cc2Cl)OC(=O)c2ccc(CNC(C(=O)OCC3CCN(C)CC3)c3ccccc3)s2)cc1OC1CCCC1 (single isomer, unassigned) [Example 58] | 1 to 10 | – | –
12 | COc1ccc([C@H](Cc2c(Cl)c[n+]([O-])cc2Cl)OC(=O)c2ccc(CNC(C(=O)OC[C@@H]3CCN(C)C3)c3ccccc3)s2)cc1OC (single isomer, unassigned) [Example 75] | 10 to 100 | 1 to 10 | –
13 | COc1ccc([C@H](Cc2c(Cl)c[n+]([O-])cc2Cl)OC(=O)c2ccc(CNC(C(=O)OC[C@@H]3CCN(C)C3)c3ccccc3)s2)cc1OC (single isomer, unassigned) [Example 76] | 1 to 10 | 1 to 10 | –
14 | COc1ccc([C@H](Cc2c(Cl)c[n+]([O-])cc2Cl)OC(=O)c2ccc(CNC(C(=O)OCCN3CCCC3)c3ccccc3)s2)cc1OC (single isomer, unassigned) [Example 83] | – | 1 to 10 | –
15 | COc1ccc([C@H](Cc2c(Cl)c[n+]([O-])cc2Cl)OC(=O)c2ccc(CNC(C(=O)OCCN3CCCC3)c3ccccc3)s2)cc1OC (single isomer, unassigned) [Example 84] | – | 1 to 10 | –
16 | COc1ccc([C@H](Cc2c(Cl)c[n+]([O-])cc2Cl)OC(=O)c2ccc(CNC(C(=O)OC[C@H]3CCCN(C)C3)c3ccccc3)s2)cc1OC (single isomer, unassigned) [Example 90] | 10 to 100 | – | –
17 | COc1ccc([C@H](Cc2c(Cl)c[n+]([O-])cc2Cl)OC(=O)c2ccc(CNC(C(=O)OC[C@H]3CCCN(C)C3)c3ccccc3)s2)cc1OC (single isomer, unassigned) [Example 91] | 1 to 10 | – | –
18 | COc1ccc([C@H](Cc2c(Cl)c[n+]([O-])cc2Cl)OC(=O)c2ccc(CNC(C)(C(=O)OCC3CCN(C)CC3)c3ccccc3)s2)cc1OC (single isomer, unassigned) [Example 103] | 1 to 10 | 1 to 10 | –
19 | COc1ccc([C@H](Cc2c(Cl)c[n+]([O-])cc2Cl)OC(=O)c2ccc(CNC(C)(C(=O)OCC3CCN(C)CC3)c3ccccc3)s2)cc1OC (single isomer, unassigned) [Example 104] | 10 to 100 | – | –
20 | COCCOc1cc([C@H](Cc2c(Cl)c[n+]([O-])cc2Cl)OC(=O)c2ccc(CNC(C(=O)OCC3CCN(C)CC3)c3ccccc3)s2)ccc1OC(F)F (single isomer, unassigned) [Example 123] | 10 to 100 | 1 to 10 | –
21 | COCCOc1cc([C@H](Cc2c(Cl)c[n+]([O-])cc2Cl)OC(=O)c2ccc(CNC(C(=O)OCC3CCN(C)CC3)c3ccccc3)s2)ccc1OC(F)F (single isomer, unassigned) [Example 124] | 1 to 10 | 1 to 10 | –
22 | COc1ccc([C@H](Cc2c(Cl)c[n+]([O-])cc2Cl)OC(=O)c2ccc(CNC(CO)(C(=O)OC[C@H]3CCN(C)C3)c3ccccc3)s2)cc1OC (single isomer, unassigned) [Example 126] | – | 1 to 10 | –
23 | COc1ccc([C@H](Cc2c(Cl)c[n+]([O-])cc2Cl)OC(=O)c2ccc(CNC(CO)(C(=O)OC[C@H]3CCN(C)C3)c3ccccc3)s2)cc1OC (single isomer, unassigned) [Example 127] | 10 to 100 | – | –
24 | COc1ccc([C@H](Cc2c(Cl)c[n+]([O-])cc2Cl)OC(=O)c2ccc(CNC(CO)(C(=O)OC[C@@H]3CCN(C)C3)c3ccccc3)s2)cc1OC (single isomer, unassigned) [Example 128] | – | 1 to 10 | –
25 | COc1ccc([C@H](Cc2c(Cl)c[n+]([O-])cc2Cl)OC(=O)c2ccc(CNC(CO)(C(=O)OC[C@@H]3CCN(C)C3)c3ccccc3)s2)cc1OC (single isomer, unassigned) [Example 129] | 10 to 100 | 1 to 10 | –
